The text below walks through data of paper PMC12186844 (ACS Chemical Neuroscience, 2025).

The chains behind the UniProt entries cited, without tags or fusion partners.
UniProt P14416, whole entry: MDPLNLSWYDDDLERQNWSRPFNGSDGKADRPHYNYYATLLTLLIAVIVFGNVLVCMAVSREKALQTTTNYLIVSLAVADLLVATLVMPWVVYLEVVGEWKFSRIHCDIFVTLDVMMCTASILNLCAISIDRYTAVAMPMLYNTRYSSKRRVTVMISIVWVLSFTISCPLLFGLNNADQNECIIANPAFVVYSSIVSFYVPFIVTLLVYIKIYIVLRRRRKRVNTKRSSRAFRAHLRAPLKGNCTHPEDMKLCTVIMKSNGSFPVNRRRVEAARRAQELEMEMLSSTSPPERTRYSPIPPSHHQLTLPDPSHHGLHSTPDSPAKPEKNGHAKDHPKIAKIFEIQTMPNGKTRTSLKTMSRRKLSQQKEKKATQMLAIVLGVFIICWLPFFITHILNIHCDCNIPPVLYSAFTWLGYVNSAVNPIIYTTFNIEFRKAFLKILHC

For the assay, the target named is D2LR (Homo sapiens, UniProt P14416). Briefly: [3H]rotigotine saturation binding, cell membranes. The settings on record: tested as the radiolabelled form.

In the case of `CCCN(CCc1cccs1)[C@H]1CCc2c(O)cccc2C1` [rotigotine], the Bmax (+ 10 μM D2 PAM + 0.1 mM GppNHp) turned out to be 1.45 ± 0.21 pmol/mg; the Bmax (+ 10 μM D2 PAM + 100 mM NaCl) was 1.71 ± 0.27 pmol/mg; the Bmax (+ 10μM D2 PAM) turned out to be 1.66 ± 0.23 pmol/mg; the Bmax (+ 0.1mM GppNHp) was determined as 1.37 ± 0.19 pmol/mg; the Bmax (Control) came to 1.00 ± 0.18 pmol/mg.
